pEC50: −log10 of the molar value.

Sequences of proteins named here, by UniProt entry; tags and fusion partners are left off. Residues count along the entry.
UniProt P03952, 20-390 partner: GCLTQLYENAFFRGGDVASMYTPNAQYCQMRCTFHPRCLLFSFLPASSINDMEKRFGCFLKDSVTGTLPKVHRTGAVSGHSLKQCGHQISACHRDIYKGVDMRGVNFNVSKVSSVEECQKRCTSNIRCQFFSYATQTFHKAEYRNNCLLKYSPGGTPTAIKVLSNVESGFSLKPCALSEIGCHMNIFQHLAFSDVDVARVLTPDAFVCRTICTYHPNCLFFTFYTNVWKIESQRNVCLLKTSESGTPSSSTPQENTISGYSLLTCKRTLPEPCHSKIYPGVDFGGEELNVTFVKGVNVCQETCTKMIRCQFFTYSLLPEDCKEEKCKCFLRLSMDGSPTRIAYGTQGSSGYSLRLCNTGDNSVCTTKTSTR
UniProt P03952, 391-638: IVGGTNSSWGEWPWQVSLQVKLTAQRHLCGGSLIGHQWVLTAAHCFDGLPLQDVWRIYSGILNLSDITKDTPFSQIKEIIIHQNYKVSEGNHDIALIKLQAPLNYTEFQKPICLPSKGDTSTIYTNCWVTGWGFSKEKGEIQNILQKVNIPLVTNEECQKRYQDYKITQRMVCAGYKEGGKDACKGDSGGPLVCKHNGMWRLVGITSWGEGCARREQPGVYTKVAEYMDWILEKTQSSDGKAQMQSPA

By pEC50 is commonly meant −log10 of the EC50, conventionally taken in molar units.

The test has as its target human activated kallikrein enzyme (plasma kallikrein) (Homo sapiens (Human), UniProt P03952). Briefly: Inhibition of human activated plasma kallikrein, fluorogenic peptide substrate assay, 500 pM enzyme format. In kind it is biochemical. Conditions: 500 pM activated kallikrein enzyme, 300 uM Pro-Phe-Arg-7-amido-4-methylcoumarin substrate, 30 min preincubation, 10 min at RT; read-out: Primary Dose Response Assay: Average EC50. The procedure: Example compounds were evaluated for inhibition of the human activated kallikrein enzyme in two formats of an assay employing a fluorogenic peptide substrate. In one assay format, the concentrations of reagents were as follows: 20 mM Tris pH 7.5, 1 mM EDTA, 150 mM sodium chloride, 0.1% PEG-400, 0.1% Triton X-100, 500 pM activated kallikrein enzyme, 300 uM Pro-Phe-Arg-7-amido-4-methylcoumarin substrate. Prior to reaction initiation with substrate, enzyme and inhibitors were preincubated for 30 min at RT. After initiation with substrate, reactions were incubated for 10 min at RT and fluorescence emission at 460 nm from 380 nm excitation measured with a microplate reader. In another assay format, the concentrations of reagents were as follows: 20 mM Tris pH 7.5, 1 mM EDTA, 150 mM sodium chloride, 0.1% PEG-400, 0.1% Triton X-100, 5 pM activated kallikrein enzyme, 300 uM Pro-Phe-Arg-7-amido-4-methylcoumarin substrate. Prior to reaction initiation with substrate, enzyme and inhibitors were preincubated for 30 min at RT. After initiation with substrate, reactions were incubated for 18 h at RT and fluorescence emission at 460 nm from 380 nm excitation measured with a microplate reader.
For the compound `Cc1c(C2CC2)ccc2nc(Cn3cc(C(=O)NCc4ncn5ccc(Br)cc45)cn3)cn12` [Example I-14, N-((7-bromoimidazo[1,5-a]pyridin-1-yl)methyl)-1-((6-cyclopropyl-5-methylimidazo[1,2-a]pyridin-2-yl)methyl)-1H-pyrazole-4-carboxamide], the pEC50 was above 9.00.

With `O=C(NCc1ncn2ccc(Br)cc12)c1cnn(Cc2cn3c(Cl)c(C4CC4)ccc3n2)c1` [Example I-57, N-((7-bromoimidazo[1,5-a]pyridin-1-yl)methyl)-1-((5-chloro-6-cyclopropylimidazo[1,2-a]pyridin-2-yl)methyl)-1H-pyrazole-4-carboxamide], the pEC50 is above 9.00.

As for `O=C(NCc1ncn2ccc(Br)c(F)c12)c1cnn(Cc2cn3cc(C4CC4)ccc3n2)c1` [Example I-97, N-((7-bromo-8-fluoroimidazo[1,5-a]pyridin-1-yl)methyl)-1-((6-cyclopropylimidazo[1,2-a]pyridin-2-yl)methyl)-1H-pyrazole-4-carboxamide], the pEC50 was above 9.00.

Turning to `O=C(NCc1ncn2ccc(Br)c(F)c12)c1cnn(Cc2cn3nc(C4CC4)ccc3n2)c1` [Example I-108, N-((7-bromo-8-fluoroimidazo[1,5-a]pyridin-1-yl)methyl)-1-((6-cyclopropylimidazo[1,2-b]pyridazin-2-yl)methyl)-1H-pyrazole-4-carboxamide], the pEC50 is above 9.00.

As to `O=C(NCc1ncn2ccc(Br)c(F)c12)c1cnn(Cc2cn3c(F)c(C4CC4)ccc3n2)c1` [Example I-164, N-((7-bromo-8-fluoroimidazo[1,5-a]pyridin-1-yl)methyl)-1-((6-cyclopropyl-5-fluoroimidazo[1,2-a]pyridin-2-yl)methyl)-1H-pyrazole-4-carboxamide], the pEC50 is above 9.00.

`Cc1c(Cl)ccc2nc(Cn3cc(C(=O)NCc4ncn5ccc(Cl)c(F)c45)nn3)cn12` [Example I-172, 1-((6-chloro-5-methylimidazo[1,2-a]pyridin-2-yl)methyl)-N-((7-chloro-8-fluoroimidazo[1,5-a]pyridin-1-yl)methyl)-1H-1,2,3-triazole-4-carboxamide]: the pEC50 was above 9.00.
